In patent US20250235422A1, “DODECA-2,4,6,8,10-PENTAENOIC ACID COMPOSITIONS AND USES THEREOF” (BiomEdit, Inc., priority 2024, published 2025) one finds AhR agonist activity, hydrophobicity and Activity data, which are given here for two molecules.

In series [1] the target is T1, AHR (Homo sapiens, UniProt P35869).
T1 sequence (P35869 11-848): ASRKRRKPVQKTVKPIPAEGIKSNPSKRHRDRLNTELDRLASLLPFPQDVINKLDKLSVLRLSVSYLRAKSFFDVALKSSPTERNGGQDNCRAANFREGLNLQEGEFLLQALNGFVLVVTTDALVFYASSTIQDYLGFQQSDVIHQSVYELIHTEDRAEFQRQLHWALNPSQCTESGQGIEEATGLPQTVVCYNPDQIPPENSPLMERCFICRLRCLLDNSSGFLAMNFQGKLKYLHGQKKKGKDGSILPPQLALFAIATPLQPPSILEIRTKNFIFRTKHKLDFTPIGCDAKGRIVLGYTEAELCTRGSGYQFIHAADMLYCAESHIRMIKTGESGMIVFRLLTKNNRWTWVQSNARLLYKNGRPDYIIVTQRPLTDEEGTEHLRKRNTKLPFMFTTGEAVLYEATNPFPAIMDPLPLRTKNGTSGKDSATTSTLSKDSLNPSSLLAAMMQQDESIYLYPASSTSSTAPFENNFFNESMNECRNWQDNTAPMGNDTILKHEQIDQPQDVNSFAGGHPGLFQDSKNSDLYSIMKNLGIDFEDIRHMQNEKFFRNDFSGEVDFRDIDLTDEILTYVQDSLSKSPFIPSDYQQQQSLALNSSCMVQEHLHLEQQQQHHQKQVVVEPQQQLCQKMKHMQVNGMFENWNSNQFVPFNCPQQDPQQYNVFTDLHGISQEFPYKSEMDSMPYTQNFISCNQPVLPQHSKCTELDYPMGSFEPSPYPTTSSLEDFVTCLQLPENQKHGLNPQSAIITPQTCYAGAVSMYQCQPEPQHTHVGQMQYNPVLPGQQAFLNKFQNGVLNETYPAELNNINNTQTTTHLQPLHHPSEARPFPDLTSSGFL
Briefly: AhR activity assay using HepG2-Lucia AhR reporter cells. In kind it is cell-based. The settings on record: isolated orange pigmented PKS metabolite from L. reuteri 3632.

The nature of series [2]: Light stability and hydrophobicity observed during development. In kind it is physicochemical.
Series [3] addresses T1, AHR. The settings on record: AHR ligand activity; Table 1 reproduced from Barroso A et al., 2021; cited from earlier work.

Entries after “also recorded” stand apart in the source; their conditions may differ.

As for `CC=CC=CC=CC=CC=CC(=O)O` [DDPA, dodeca-2,4,6,8,10-pentaenoic acid], the AhR agonist activity result on AHR [1] is given as “effective AhR agonist; also recorded: agonist of the AhR signaling pathway”. Also, the hydrophobicity entry in series [2] is recorded as “hydrophobic”.
For the molecule `COc1ccc(-c2cc(=O)c3c(O)cc(O[C@@H]4O[C@H](CO[C@@H]5O[C@@H](C)[C@H](O)[C@@H](O)[C@H]5O)[C@@H](O)[C@H](O)[C@H]4O)cc3o2)cc1O` [Diosmin], the Activity entry on AHR [3] was “Agonist”.
